Source: US20090215774A1, “USES OF INDANE COMPOUNDS” (H. LUNDBECK A/S, priority 2008, published 2009)

By UniProt entry, the sequences of proteins in these tests, tags left out.
UniProt P23977, whole entry: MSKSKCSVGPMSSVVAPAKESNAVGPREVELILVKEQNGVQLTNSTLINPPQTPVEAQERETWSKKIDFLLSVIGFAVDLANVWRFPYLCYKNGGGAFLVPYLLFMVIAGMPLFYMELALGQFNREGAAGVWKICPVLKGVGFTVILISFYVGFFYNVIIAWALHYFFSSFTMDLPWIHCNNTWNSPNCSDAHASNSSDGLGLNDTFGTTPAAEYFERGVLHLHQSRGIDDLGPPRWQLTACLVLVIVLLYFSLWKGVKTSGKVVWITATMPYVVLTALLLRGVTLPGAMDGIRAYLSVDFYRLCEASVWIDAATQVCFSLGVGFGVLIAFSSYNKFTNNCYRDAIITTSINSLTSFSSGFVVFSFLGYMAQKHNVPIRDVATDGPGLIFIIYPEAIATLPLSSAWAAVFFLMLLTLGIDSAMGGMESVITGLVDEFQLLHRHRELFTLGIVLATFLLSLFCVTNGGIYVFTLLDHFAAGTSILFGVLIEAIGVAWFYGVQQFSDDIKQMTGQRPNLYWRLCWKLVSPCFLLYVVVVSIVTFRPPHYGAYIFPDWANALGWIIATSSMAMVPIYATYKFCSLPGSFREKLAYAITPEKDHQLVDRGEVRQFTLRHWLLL

Biological target: T1, DAT Dopamine Transporter (Rattus norvegicus, UniProt P23977)
T1 construct: male wistar rats (125-250 g) are sacrificed by decapitation and striatum quickly dissected out; from tissue; host or cells: rat striatum, P2 fraction
Experiment: Measurements of [3H]dopamine uptake into rat cortical synaptosomes
Assay type: biochemical
Description: Measurements of [^3H]Dopamine Uptake Into Rat Cortical Synaptosomes
The tissue is gently homogenised (glass teflon homogeniser) and the P2 fraction is obtained by centrifugation (1000 g, 10 minutes and 40000 g, 20 minutes, 4° C.) and suspended in 560 volumes of a modified Krebs-Ringer-phosphate buffer, pH 7.4.
Tissue 0.25 mg/well (140 μl) (original tissue) is mixed with test suspension. […] Final volume is 0.2 mL. The incubation is terminated by filtering the samples under vacuum through Whatman GF/C filters with a wash of 1×0.2 ml buffer. The filters are dried and appropriate scintillation fluid (Optiphase Supermix) is added. After storage for 2 hours in the dark the content of radioactivity is determined by liquid scintillation counting. Uptake is obtained by subtracting the non-specific binding and passive transport measured in the presence of 100 μM of benztropin. For determination of the inhibition of uptake ten concentrations of drugs covering 6 decades are used.
^3H-DA=3,4-(ring-2,5,6-^3H)dopamine hydrochloride from New England Nuclear, specific activity 30-50 Ci/mmol.

Structure (SMILES): CNC1CC(c2ccc(Cl)c(Cl)c2)c2ccccc21 (stereo not shown) [Indatraline, reference compound]
- IC50: 0.1 to 200 nM
